ChEMBL document CHEMBL1614632, “Trend analysis of a database of intravenous pharmacokinetic parameters in humans for 670 drug compounds” (Drug Metab Dispos, 2008)

Tests used:
clinical [1] = test: clinical
clinical [2] = test: clinical; remark: listed apart in the source
clinical [3] = conditions: human, in vivo, iv, t1/2
clinical [4] = test: clinical; remark: listed apart in the source
clinical [5] = test: clinical; remark: listed apart in the source

Compound	clearance (clinical [1])	Vd (clinical [2])	half-life (clinical [3])	MRT (clinical [4])	fraction unbound (clinical [5])
CN1CCC[C@@H]1Cc1c[nH]c2ccc(CCS(=O)(=O)c3ccccc3)cc12	5.3 mL/min/kg	1.6 L/kg	4.2 h		
CCCc1nc(C)c2c(=O)[nH]c(-c3cc(S(=O)(=O)N4CCN(CC)CC4)ccc3OCC)nn12			4.5 h	3.8 h	
Nc1ncn([C@@H]2O[C@H](CO)[C@@H](O)[C@H]2O)c(=O)n1 [AZACITIDINE]	35 mL/min/kg	0.47 L/kg	0.36 h	0.22 h	
OC(CCN1CCCCC1)(c1ccccc1)C1CC2C=CC1C2 (stereo unspecified) [BIPERIDEN]		12 L/kg	24 h	17 h	
CC=CC1=C(C(=O)O)N2C(=O)[C@@H](NC(=O)[C@H](N)c3ccc(O)cc3)[C@H]2SC1 [CEFPROZIL]					0.59
COc1ccc([C@@H]2Sc3ccccc3N(CCN(C)C)C(=O)[C@@H]2OC(C)=O)cc1 [DILTIAZEM]	13 mL/min/kg		5.6 h		
CC[C@H]1OC(=O)[C@H](C)[C@@H](O[C@H]2C[C@@](C)(OC)[C@@H](O)[C@H](C)O2)[C@H](C)[C@@H](O[C@@H]2O[C@H](C)C[C@H](N(C)C)[C@H]2O)[C@](C)(O)C[C@@H](C)C(=O)[C@H](C)[C@@H](O)[C@]1(C)O [ERYTHROMYCIN]			2 h		
O=C(c1ccccc1)c1ccc2n1CCC2C(=O)O (stereo unspecified) [KETOROLAC]			5.1 h	5.2 h	
NCCCC[C@H](N[C@@H](CCc1ccccc1)C(=O)O)C(=O)N1CCC[C@H]1C(=O)O [LISINOPRIL ANHYDROUS]		0.89 L/kg	42 h	12 h	
C[N+]1(CC2CC2)CC[C@]23c4c5ccc(O)c4O[C@H]2C(=O)CC[C@@]3(O)[C@H]1C5 (stereo partly specified) [METHYLNALTREXONE]	22 mL/min/kg	2.6 L/kg	2.5 h		
CC(C)NCC(O)c1ccc(NS(C)(=O)=O)cc1 (stereo unspecified) [SOTALOL]		1.3 L/kg	6.3 h	11 h	
Nc1ccn([C@H]2CC[C@@H](CO)O2)c(=O)n1 [ZALCITABINE]	5.6 mL/min/kg	0.54 L/kg	1.2 h	1.6 h	
